Earlier results as cited in patent US8034904B2, “Anti-IGF-I receptor antibody” (Immunogen Inc., priority 2002, dated 2011).

System: multiple myeloma
Conditions: after 27 months of follow-up; 3 X 10^6 IU/m^2 subcutaneously three times weekly; cited from earlier work

Question: With “IFN-α2: recombinant IFN-α2 given as remission maintenance” as the substance, how does the evaluable patients relapsed read?
Answer: The evaluable patients relapsed was 24%.
